## Experimental water solubility values from OPERA 2.9

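The OPERA project collected these measurements from public sources as training and test data for property models. One number stands for a compound and property, with no spread given. How each value was measured is not recorded, so precision varies. A value may pool stereoisomers or salt forms, and the file does not say which form was measured. Some entries may be limits or estimates that an upstream database listed as plain numbers.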

Water solubility is log10 of mol/L, nominally at 25 °C; higher is more soluble. "n/a" marks a cell with nothing listed here.

- CC(=O)Nc1ccc(Cl)c(Cl)c1 [3,4-Dichloroacetanilide]: log S -3.25 (log10 mol/L)
- O=C1CCCCCNC(=O)CCCCCNC(=O)CCCCCN1 [1,8,15-Triazacycloheneicosane-2,9,16-trione]: log S -1.562 (log10 mol/L)
- O=C(O)C=C(F)C(F)(F)C(F)(F)C(F)(F)C(F)(F)C(F)(F)C(F)(F)C(F)(F)F [2H-Perfluoro-2-decenoic acid]: log S -3.853 (log10 mol/L)
- CCCCCCCC(=O)NO [Octanamide, N-hydroxy-]: log S -2.012 (log10 mol/L)
- O=CCc1ccc2c(c1)OCO2 [1,3-benzodioxol-5-ylacetaldehyde]: log S -1.959 (log10 mol/L)
- CC(C)C[C@H](N)C(=O)N[C@H](CSSC[C@@H](NC(=O)[C@@H](N)CC(C)C)C(=O)O)C(=O)O: log S -0.479 (log10 mol/L)
- Clc1nc2ccccc2s1 [2-Chlorobenzothiazole]: log S -2.735 (log10 mol/L)
- Clc1ccc(Oc2c(Cl)c(Cl)cc(Cl)c2Cl)cc1Cl [2,3,3',4',5,6-Hexachlorodiphenylether]: log S -8.3 (log10 mol/L)
- CCCCCCCCCCCCc1ccc(N)cc1 [4-Dodecylaniline]: log S -2.64 (log10 mol/L)
- Oc1ccnc2ccccc12 [4-Hydroxyquinoline]: log S -1.481 (log10 mol/L)
- CCC[C@H](NC(=O)[C@@H]1[C@H]2CCC[C@H]2CN1C(=O)[C@@H](NC(=O)[C@@H](NC(=O)c1cnccn1)C1CCCCC1)C(C)(C)C)C(=O)C(=O)NC1CC1 [Telaprevir]: log S -4.721 (log10 mol/L)
- NC(=O)C(O)C(O)C(=O)O (configuration not stated) [4-Amino-2,3-dihydroxy-4-oxobutanoic acid]: log S -0.569 (log10 mol/L)
- N=C(N)NCC1COC2(CCCCC2)O1.N=C(N)NCC1COC2(CCCCC2)O1.O=S(=O)(O)O (configuration not stated) [Guanadrel sulfate]: log S -0.839 (log10 mol/L)
- CN1CCN(c2cc3c(cc2F)c(=O)c(C(=O)O)cn3-c2ccc(F)cc2)CC1 [Difloxacin]: log S -2.48 (log10 mol/L)
- CC(C)c1ccc(Br)c(=O)c(O)c1Br: log S -4.47 (log10 mol/L)
- OC(CCl)CCl [1,3-Dichloro-2-propanol]: log S -0.11 (log10 mol/L)
- C=CC(=O)OCCN(CC)S(=O)(=O)C(F)(F)C(F)(F)C(F)(F)C(F)(F)C(F)(F)C(F)(F)C(F)(F)C(F)(F)F [2-[Ethyl[(heptadecafluorooctyl)sulfonyl]amino]ethyl acrylate]: log S -5.847 (log10 mol/L)
- CCC(SSC(CC)C(=O)O)C(=O)O (configuration not stated) [2,2'-Disulfanediyldibutanoic acid]: log S -0.962 (log10 mol/L)
- CSc1ncnc2nc[nH]c12 [NoName_788]: log S -2.335 (log10 mol/L)
- C=C(C)C(CC(=O)O)C(=O)O (configuration not stated) [2-(Prop-1-en-2-yl)butanedioic acid]: log S -0.321 (log10 mol/L)
- Nc1ccc(S(=O)(=O)Nc2ncc(C(=O)O)s2)cc1: log S -2.874 (log10 mol/L)
- CNc1ccc(N)c2c1C(=O)c1ccccc1C2=O [C.I. Solvent Violet 12]: log S -5.64 (log10 mol/L)
- CCC(C)(C)OC(=N)O [2-Butanol, 2-methyl-, carbamate]: log S -0.8 (log10 mol/L)
- CC(C)=NNC(=O)Nc1ccc([N+](=O)[O-])cc1 [Acetone, 4-(p-nitrophenyl)semicarbazone]: log S -3.595 (log10 mol/L)
- O=C(Nc1ccccc1)NC1CCCC1 [N-Cyclopentyl-N'-phenylurea]: log S -2.951 (log10 mol/L)
- CSc1cnc2cncnc2n1: log S -1.55 (log10 mol/L)
- Nc1ccc(S(=O)(=O)Nc2nncs2)cc1 [2-Sulfanilamido-1,3,4-thiadiazole]: log S -2.868 (log10 mol/L)
- NNC(=O)c1ccc([N+](=O)[O-])s1 [5-Nitrothiophene-2-carbohydrazide]: log S -1.971 (log10 mol/L)
- CCCCN(CCC#N)c1ccc(N=Nc2ccc([N+](=O)[O-])cc2)cc1: log S -7.699 (log10 mol/L)
- CCn1cc(C(=O)O)c(=O)c2cc(F)c(N3CCNC(C)C3)c(F)c21 (configuration not stated) [Lomefloxacin]: log S -2.533 (log10 mol/L)
- O=C(CCCN1CCC(O)(c2ccc(F)cc2)CC1)c1ccc(F)cc1: log S -4.175 (log10 mol/L)
- CC(=O)C(N=Nc1ccc(Cl)cc1[N+](=O)[O-])C(=O)Nc1ccccc1Cl (configuration not stated): log S -7.722 (log10 mol/L)
- CCCOc1ccc(C(=O)OCCN(CC)CC)cc1N [Proxymetacaine]: log S -2.326 (log10 mol/L)
- NC(=O)N(CCCO)N=Cc1ccc([N+](=O)[O-])o1: log S -2.6 (log10 mol/L)
- CN1CCC(CN2c3ccccc3Sc3ccccc32)C1.Cl (configuration not stated) [Methdilazine hydrochloride]: log S 0.177 (log10 mol/L)
- CCc1nc(C(=O)O)c(C(=O)O)[nH]1 [2-Ethyl-1H-imidazole-4,5-dicarboxylic acid]: log S -2.834 (log10 mol/L)
- O=C(O)CC(O)(C(=O)O)c1ccccc1 (configuration not stated) [2-Hydroxy-2-phenylbutanedioic acid]: log S -1.127 (log10 mol/L)
- Clc1cc(Oc2ccc(Cl)c(Cl)c2Cl)cc(Cl)c1Cl [2,3,3',4,4',5'-Hexachlorodiphenylether]: log S -8.49 (log10 mol/L)
- CN1C(CCl)Nc2cc(Cl)c(S(N)(=O)=O)cc2S1(=O)=O (configuration not stated) [Methyclothiazide]: log S -3.777 (log10 mol/L)
- CC(C)c1cccc(=O)c(O)c1 [beta-Thujaplicin]: log S -2.14 (log10 mol/L)
- O=c1[nH]c(=O)n([C@H]2C[C@H](O)[C@@H](CO)O2)cc1F [Floxuridine]: log S -0.781 (log10 mol/L)
- OCc1nc2ncncc2[nH]1 [7h-purin-8-ylmethanol]: log S -1.518 (log10 mol/L)
- COc1ccc(O)c(C(=O)O)c1 [Benzoic acid, 2-hydroxy-5-methoxy-]: log S -1.271 (log10 mol/L)
- CC(=O)Nc1ccc(NC(=O)c2cc3ccccc3c(N=Nc3cc(C(N)=O)ccc3Cl)c2O)cc1: log S -7.304 (log10 mol/L)
- CN(C)C=C1OC(=O)C(C#N)=C1c1ccccc1: log S -1.12 (log10 mol/L)
- Clc1cccc(Oc2ccccc2)c1Cl [2,3-dichlorodiphenyl ether]: log S -4.67 (log10 mol/L)
- O=C(O)c1ccccc1-c1nn(-c2ccccc2)nc1C(=O)O: log S -2.189 (log10 mol/L)
- Nc1ccc(-c2ccc(N)cc2S(=O)(=O)O)c(S(=O)(=O)O)c1 [2,2'-Benzidinedisulfonic acid]: log S -2.62 (log10 mol/L)
- CCCCC(CC)C1OCCN1CCOC(=O)NCCCCCCNC(=O)OCCN1CCOC1C(CC)CCCC (configuration not stated): log S -5.791 (log10 mol/L)

Excerpt, the final 6 entries:

| structure (SMILES) | name | log S (log10 mol/L) |
|---|---|---|
| CC(=O)Nc1ccc(NC(=O)c2cc3ccccc3c(N=Nc3cc(C(N)=O)ccc3Cl)c2O)cc1 | n/a | -7.304 |
| CN(C)C=C1OC(=O)C(C#N)=C1c1ccccc1 | n/a | -1.12 |
| Clc1cccc(Oc2ccccc2)c1Cl | 2,3-dichlorodiphenyl ether | -4.67 |
| O=C(O)c1ccccc1-c1nn(-c2ccccc2)nc1C(=O)O | n/a | -2.189 |
| Nc1ccc(-c2ccc(N)cc2S(=O)(=O)O)c(S(=O)(=O)O)c1 | 2,2'-Benzidinedisulfonic acid | -2.62 |
| CCCCC(CC)C1OCCN1CCOC(=O)NCCCCCCNC(=O)OCCN1CCOC1C(CC)CCCC (configuration not stated) | n/a | -5.791 |

Data: OPERA 2.9 data sets, kmansouri/OPERA on GitHub.